Assay results published in patent US10604554B2, “Double-acylated GLP-1 derivatives” (Novo Nordisk A/S, priority 2012, dated 2020).

By UniProt entry, the sequences of proteins in these tests, tags left out. Residues count along the entry.
UniProt P43220, 24-463: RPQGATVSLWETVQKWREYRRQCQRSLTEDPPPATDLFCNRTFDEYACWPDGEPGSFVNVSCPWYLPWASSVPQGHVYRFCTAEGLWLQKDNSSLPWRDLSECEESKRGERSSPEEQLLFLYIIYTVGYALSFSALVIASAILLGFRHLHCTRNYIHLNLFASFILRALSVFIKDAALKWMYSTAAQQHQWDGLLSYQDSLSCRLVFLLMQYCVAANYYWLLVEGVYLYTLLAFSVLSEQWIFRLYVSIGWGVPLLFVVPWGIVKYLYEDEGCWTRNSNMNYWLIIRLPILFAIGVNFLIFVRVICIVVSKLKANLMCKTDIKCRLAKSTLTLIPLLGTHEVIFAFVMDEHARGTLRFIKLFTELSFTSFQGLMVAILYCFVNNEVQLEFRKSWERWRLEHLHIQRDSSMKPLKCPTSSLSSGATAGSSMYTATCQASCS

Biological target: T1, human GLP-1 receptor (Homo sapiens, UniProt P43220)
T1 construct: expressed in transfected cells; host or cells: BHK cells, clone FCW467-12A/KZ10-1 (parent line BHKTS13), further transfected with CRE luciferase
Assay: In vitro potency (AlphaScreen cAMP, membranes)
Assay type: biochemical
Conditions: cAMP formation in membranes from BHK467-12A cells expressing human GLP-1 receptor
Procedure: The purpose of this example is to test the activity, or potency, of the GLP-1 derivatives in vitro.
Purified plasma membranes from a stable transfected cell line, BHK467-12A (tk-ts13), expressing the human GLP-1 receptor were stimulated with the GLP-1 analogue or derivative in question, and the potency of cAMP production was measured using the AlphaScreen™ cAMP Assay Kit from Perkin Elmer Life Sciences. The basic principle of the AlphaScreen Assay is a competition between endogenous cAMP and exogenously added biotin-cAMP. The capture of cAMP is achieved by using a specific antibody conjugated to acceptor beads.
A stable transfected cell line and a high expressing clone were selected for screening. The cells were grown at 5% CO2 in DMEM, 5% FCS, 1% Pen/Strep (Penicillin/Streptomycin) and 0.5 mg/ml of the selection marker G418.
Cells at approximately 80% confluence were washed 2× with PBS and harvested with Versene (aqueous solution of the tetrasodium salt of ethylenediaminetetraacetic acid), centrifuged 5 min at 1000 rpm and the supernatant removed. The additional steps were all performed on ice. […] The protein concentration was determined and the membranes stored at −80° C. until use. […]

EC50: 0.634 nM
SMILES: CC[C@H](C)[C@H](NC(=O)[C@H](Cc1ccccc1)NC(=O)[C@H](CCC(=O)O)NC(=O)[C@H](CCCCNC(=O)[C@@H](N)CCCCNC(=O)[C@@H](N)CCCCNC(=O)CC[C@H](NC(=O)CCCCCCCCCCCCCCC(=O)O)C(=O)O)NC(=O)[C@H](C)NC(=O)[C@H](C)NC(=O)[C@H](CCC(N)=O)NC(=O)CNC(=O)[C@H](CCC(=O)O)NC(=O)[C@H](CC(C)C)NC(=O)[C@H](Cc1ccc(O)cc1)NC(=O)[C@H](CO)NC(=O)[C@H](CO)NC(=O)[C@@H](NC(=O)[C@H](CC(=O)O)NC(=O)[C@H](CO)NC(=O)[C@@H](NC(=O)[C@H](Cc1ccccc1)NC(=O)[C@@H](NC(=O)CNC(=O)[C@H](CCC(=O)O)NC(=O)C(C)(C)NC(=O)[C@@H](N)Cc1c[nH]cn1)[C@@H](C)O)[C@@H](C)O)C(C)C)C(=O)N[C@@H](C)C(=O)N[C@@H](Cc1c[nH]c2ccccc12)C(=O)N[C@@H](CC(C)C)C(=O)N[C@H](C(=O)N[C@@H](CCCNC(=N)N)C(=O)NCC(=O)N[C@@H](CCCNC(=N)N)C(=O)N[C@@H](CCCCNC(=O)[C@@H](N)CCCCNC(=O)[C@@H](N)CCCCNC(=O)CC[C@H](NC(=O)CCCCCCCCCCCCCCC(=O)O)C(=O)O)C(=O)O)C(C)C [Example 6, N^ε26-[(2S)-2-amino-6-[[(2S)-2-amino-6-[[(4S)-4-carboxy-4-(15-carboxypentadecanoylamino)butanoyl]amino]hexanoyl]amino]hexanoyl], N^ε37-[(2S)-2-amino-6-[[(2S)-2-amino-6-[[(4S)-4-carboxy-4-(15-carboxypentadecanoylamino)butanoyl]amino]hexanoyl]amino]hexanoyl]-[Aib^8,Arg^34,Lys^37]-GLP-1-(7-37)-peptide]
